In patent publication US20240325274A1, “SUPRAMOLECULAR AMINO ACID OR SALT THEREOF, AND PREPARATION METHOD THEREFOR AND APPLICATION THEREOF” (SUZHOU OULIT BIOPHARM CO., LTD., priority 2021, published 2024) one finds Appearance, pH value and Irritation to hands data, which are given here for 1 substance.

Data set [1] is described as follows: pH, appearance and smell of neutralized aqueous solutions. It counts as physicochemical. The note with it: 4% in water with 0.54% sodium hydroxide (Table 6). How it is done:
Three sets of color cosmetics (lipstick+eyeliner) were applied to the arms of 5 subjects with similar areas and thicknesses. The cosmetics were washed with the aqueous solutions in Table 6 (1 g of each) and then rinsed with tap water (the detergency was graded by the 5 subjects comprehensively).
The preparation procedures are as follows: Two 500-g beakers were weighed on an electronic balance, and the weights of the beakers were recorded; a proper amount of deionized water was weighed and added to the beakers according to the formula, and the beakers were heated to 75-80° C. in a water bath. The temperature of the water in the beaker was measured by a thermometer. […] At the start of the stirring, a proper amount of arginine was added to beaker (1) and a proper amount of 10% aqueous sodium hydroxide solution was added to beaker (2). The mixtures were stirred for 1 min. The temperature of the beakers (1) and (2) was reduced to 25° C. by running tap water. The evaporated water in the two beakers in the preparation process was compensated by cooled deionized water to 100% on an electronic balance. The pH of the products in the beaker (1) and (2) was measured, the appearance was observed, and the smell was confirmed.

Data set [2] is described as follows: Qualitative household application test. The note with it: 12% aqueous solution of sodium salt.

On to “N-lauroyl-L-alanine supramolecule [Example 1]”, for which, in data set [1], the Appearance entry is “Transparent” and the pH value is given as 7.25. Also, the Irritation to hands entry in data set [2] is “no irritation to hands”.
